{"sequences": {"note": "Sequences of proteins named here, by UniProt entry; tags and fusion partners are left off.", "UniProt O88943, whole entry": "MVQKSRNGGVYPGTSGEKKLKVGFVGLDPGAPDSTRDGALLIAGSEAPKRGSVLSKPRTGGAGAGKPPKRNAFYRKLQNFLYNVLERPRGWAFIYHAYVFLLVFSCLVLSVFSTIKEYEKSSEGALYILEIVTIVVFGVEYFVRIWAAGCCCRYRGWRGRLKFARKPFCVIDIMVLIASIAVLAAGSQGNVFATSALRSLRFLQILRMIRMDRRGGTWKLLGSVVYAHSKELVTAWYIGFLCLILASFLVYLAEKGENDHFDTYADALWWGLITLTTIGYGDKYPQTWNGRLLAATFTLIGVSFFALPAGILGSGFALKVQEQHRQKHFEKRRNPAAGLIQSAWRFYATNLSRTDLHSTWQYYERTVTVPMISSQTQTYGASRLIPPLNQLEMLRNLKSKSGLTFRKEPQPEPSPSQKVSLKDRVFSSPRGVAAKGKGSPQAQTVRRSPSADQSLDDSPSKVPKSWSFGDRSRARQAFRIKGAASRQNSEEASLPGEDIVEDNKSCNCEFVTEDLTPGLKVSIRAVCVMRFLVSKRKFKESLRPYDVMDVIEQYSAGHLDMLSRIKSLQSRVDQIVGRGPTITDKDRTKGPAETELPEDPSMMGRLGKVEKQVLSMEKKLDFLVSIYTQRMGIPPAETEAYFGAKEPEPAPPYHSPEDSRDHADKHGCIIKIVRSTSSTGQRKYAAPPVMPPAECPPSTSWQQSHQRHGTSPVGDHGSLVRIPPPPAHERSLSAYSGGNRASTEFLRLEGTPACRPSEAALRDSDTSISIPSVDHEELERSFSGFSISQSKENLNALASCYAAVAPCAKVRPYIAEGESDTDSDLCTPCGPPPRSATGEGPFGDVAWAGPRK"}, "source": "PubChem BioAssay AID1946", "about": "(Johns Hopkins Ion Channel Center, 2009)", "note": "The list shows a part of the results, in another mix than the full data. Active and inactive are the calls of the source.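 Rule for the calls: active = readout below zero, meaning a drop past 3 SD under the dofetilide-free negative control mean; inactive = the rest.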", "data": [{"biological_target": "Potassium voltage-gated channel subfamily KQT member 2 (Rattus norvegicus) (UniProt O88943)", "assay": "KCNQ2 blockade in CHO cells – cell-based, FluxOR thallium flux, counter-screen for hERG block protector project, confirmation (AID 1946)", "conditions": "FluxOR thallium flux fluorescence, at 10 µM, hits give low values, zero marks the 3-SD hit cutoff", "values": [{"smiles": "CCOC(=O)N1CCC(Nc2ccc(OC)cc2)CC1", "activity change vs negative control": "inactive: 14.6%"}]}]}
